Biological target: MnSOD47 (Bacillus sp. MHS47, UniProt E9LK91)
Experiment: native PAGE activity staining (NBT)
Details: 10 mM azide, pH 7.5, 37 °C, 1 h preincubation; qualitative inhibition

Protein sequences, listed by entry. Tags and fused reporters are not part of them. Residues count along the entry.
UniProt E9LK91, 1-203 limits assumed: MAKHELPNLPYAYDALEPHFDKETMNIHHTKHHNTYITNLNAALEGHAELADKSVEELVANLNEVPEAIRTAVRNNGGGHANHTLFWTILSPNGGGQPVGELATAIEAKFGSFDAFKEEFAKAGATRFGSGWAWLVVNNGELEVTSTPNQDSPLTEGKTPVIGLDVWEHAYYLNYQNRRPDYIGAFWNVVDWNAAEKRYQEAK

For [N-]=[N+]=N, the “native PAGE activity staining (NBT)” value was “The enzyme’s activity was inhibited by sodium azide (NaN3)”.

From paper PMC3039983, “Cloning, Expression, and Characterization of Thermotolerant Manganese Superoxide Dismutase from Bacillus sp. MHS47” (International Journal of Molecular Sciences, 2011)
